Data on 24 molecules can be found in PubChem BioAssay AID463212 (Sanford-Burnham Center for Chemical Genomics, 2010).

Structures are written as SMILES. The entries are a selection whose mix differs from that of the whole data set. Some tests of the compounds listed are not included; inactive here does not mean inactive elsewhere. Activity calls are given as the source filed them.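 Rule for the calls: active = growth inhibition of the mutant yeast at or above 50%; inactive = the rest.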

The assay can be described thus: growth inhibition of tim23-1 ts yeast – luminescence, uHTS, primary screen (AID 463212).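 Note: temperature-sensitive mutant grown at 25 °C; plate controls were DMSO-treated mutant yeast for no effect and medium wells lacking yeast for full effect.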 Conditions: S. cerevisiae tim23-1 growth, BacTiter-Glo luminescence, 24 h; at 20 µM; active compounds read high.
For `O=C(OC1CN2CCC1CC2)C(CO)(c1ccccc1)c1ccccc1` (centres undefined), the inhibition (commonly the change of the read-out against control, counted positive when it falls) is inactive: -2.77%.
For the molecule `COc1ccc(Br)c(C(=O)NCC2(N3CCCCC3)CCCCC2)c1`, the inhibition is inactive: 23.1%.
With `CC(C)Oc1ccc(C(=O)NCC2(N(C)C)CCCCC2)cc1`, the inhibition was inactive: 11.5%.
With `CN(C)c1cccc(C(=O)NCC2(N(C)C)CCCCC2)c1`, the inhibition was inactive: 5.42%.
As to `CN(C)C1(CNC(=O)c2ccc(Br)cc2)CCCCC1`, the inhibition was inactive: 10.5%.
The figure for `COc1cc(C(=O)NCC2(N(C)C)CCCCC2)c([N+](=O)[O-])cc1OC` is inactive: 11.2%; for `COc1ccc(Cl)cc1C(=O)NCC1(N(C)C)CCCCC1` it is inactive: 4.15%; for `COc1cccc(C(=O)NCC2(N3CCCCC3)CCCCC2)c1` it is inactive: 8.93%.
`O=C(NCC1(N2CCCCC2)CCCCC1)c1cccc(Cl)c1`: the inhibition is inactive: -5%.
With `CN(C)C1CCCC1OC(=O)C(O)(c1ccccc1)c1ccccc1` (centres undefined), the inhibition is inactive: 14.3%.
The figure for `CN(C)c1ccc(C(=O)NCC2(N(C)C)CCCCC2)cc1` is inactive: 0.6%; for `Cc1ccccc1C(=O)NCC1(N2CCCCC2)CCCCC1` it is inactive: 25.6%; for `O=C(NCC1(N2CCCCC2)CCCCC1)c1cc(F)c(F)cc1Cl` it is inactive: -6.48%.
Consider `C=CCN1CCN(CCOC(=O)C(O)(c2ccccc2)c2ccccc2)CC1`, for which the inhibition is inactive: 4.44%.
On to `COc1ccc(C(=O)NCC2(N(C)C)CCCCC2)cc1`, for which the inhibition is inactive: 5.32%.
For `O=C(NCC1(N2CCCCC2)CCCCC1)c1cccc(Br)c1`, the inhibition was inactive: 1.07%.
The figure for `Cc1cc(C(=O)NCC2(N3CCCCC3)CCCCC2)ccc1[N+](=O)[O-]` is inactive: 24.6%; for `CCN1CCCC(OC(=O)C2(O)c3ccccc3C=Cc3ccccc32)C1` (centres undefined) it is inactive: 18.4%.
`O=C(NCC1(N2CCCCC2)CCCCC1)c1cc([N+](=O)[O-])ccc1Cl`: the inhibition is inactive: 18.7%.
Regarding `CN1[C@@H]2CC[C@H]1CC(OC(=O)C(O)(c1ccccc1)c1ccccc1)C2` (some centres undefined), the inhibition is inactive: -18%.
As for `COc1cc(SC)ccc1C(=O)NCC1(N(C)C)CCCCC1`, the inhibition was inactive: -1.52%.
With `CCN(CC)CC(C)C(C)OC(=O)C(O)(c1ccccc1)c1ccccc1` (centres undefined) the figure was inactive: 10.4%; with `CC(C)N1C(=O)CC2(CCN(CCOC(=O)C(O)(c3ccccc3)c3ccccc3)CC2)C1=O`, inactive: -20.6%; with `Cc1ccc(C(=O)NCC2(N3CCCCC3)CCCCC2)cc1`, inactive: -9.74%.
